The chains behind the UniProt entries cited, without tags or fusion partners. Where a name states a change or a piece, a line headed by the entry shows the natural chain unless it says otherwise.
UniProt P35372, whole entry, looked up: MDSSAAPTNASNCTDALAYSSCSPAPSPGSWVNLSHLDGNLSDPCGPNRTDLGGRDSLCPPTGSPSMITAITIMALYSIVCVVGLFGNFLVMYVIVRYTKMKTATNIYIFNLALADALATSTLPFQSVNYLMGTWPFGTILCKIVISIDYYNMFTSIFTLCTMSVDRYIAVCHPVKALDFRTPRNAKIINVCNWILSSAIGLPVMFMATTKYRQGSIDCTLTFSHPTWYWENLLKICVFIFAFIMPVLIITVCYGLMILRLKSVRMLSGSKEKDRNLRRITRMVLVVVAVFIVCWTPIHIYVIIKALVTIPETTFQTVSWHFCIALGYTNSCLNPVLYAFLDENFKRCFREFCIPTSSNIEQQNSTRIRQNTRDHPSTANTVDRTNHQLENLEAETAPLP
UniProt P34975: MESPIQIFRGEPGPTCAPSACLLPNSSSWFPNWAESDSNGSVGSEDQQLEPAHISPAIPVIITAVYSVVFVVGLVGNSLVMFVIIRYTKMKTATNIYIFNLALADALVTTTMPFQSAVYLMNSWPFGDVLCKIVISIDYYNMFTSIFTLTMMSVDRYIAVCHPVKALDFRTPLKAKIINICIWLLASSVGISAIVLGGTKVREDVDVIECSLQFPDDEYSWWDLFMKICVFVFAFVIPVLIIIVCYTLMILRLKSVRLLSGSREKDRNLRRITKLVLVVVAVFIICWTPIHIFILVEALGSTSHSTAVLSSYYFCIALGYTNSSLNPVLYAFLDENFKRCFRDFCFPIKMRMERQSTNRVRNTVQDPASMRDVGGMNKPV

In ChEMBL document CHEMBL1134881, “3-Pyrroline containing arylacetamides: a novel series of remarkably selective kappa-agonists” (2002):

Legend:
[1] = biological target: Mu-type opioid receptor (Homo sapiens) (UniProt P35372); assay: Percent inhibition of [3H]diprenorphine binding in cloned human Opioid receptor mu 1 expressed in Sf9 insect cells at a concentration of 10 *10e-6 M
[2] = biological target: Kappa-type opioid receptor (Rattus norvegicus) (UniProt P34975); assay: Percent inhibition of [3H]diprenorphine binding in cloned rat Opioid receptor kappa 1 expressed in Sf9 insect cells at a concentration of 10e-6 M
[3] = biological target: Mu-type opioid receptor (Homo sapiens) (UniProt P35372); assay: Displacement of [3H]diprenorphine in cloned human Opioid receptor mu 1 expressed in Sf9 insect cells at a concentration of 10 *10e-6 M

**Q.** With `CC(C)[C@@H](CN1CC=CC1)N(C)C(=O)Cc1ccc(F)cc1` as the compound, how does the inhibition [1] read?
**A.** 46.5%

**Q.** And the inhibition [2]?
**A.** 37%

**Q.** `CC(C)[C@@H](CN1CC=CC1)N(C)C(=O)Cc1ccc([N+](=O)[O-])cc1` was tested. Which inhibition [1] did it give?
**A.** 10.5%

**Q.** And the inhibition [2]?
**A.** 80%

**Q.** Which results are given for `CSCC[C@@H](CN1CC=CC1)N(C)C(=O)Cc1ccc(Br)cc1`?
**A.** inhibition [2]: 80%; inhibition [3]: 0%

**Q.** Which results are given for `COc1ccc(CC(=O)N(C)[C@@H](CCSC)CN2CC=CC2)cc1`?
**A.** inhibition [2]: 80%; inhibition [3]: 0%

**Q.** Which inhibition [2] does the source give for `CC(C)[C@@H](CN1CC=CC1)N(C)C(=O)Cc1ccc(Br)cc1` here?
**A.** 90%

**Q.** And the inhibition [3]?
**A.** 0%

**Q.** Which inhibition [1] does the source give for `CSCC[C@@H](CN1CC=CC1)N(C)C(=O)Cc1ccc(Cl)c(Cl)c1` here?
**A.** 11.5%

**Q.** What about the inhibition [2] of the same compound?
**A.** 90%

**Q.** For `CC(C)[C@@H](CN1CC=CC1)N(C)C(=O)Cc1ccc(Cl)c(Cl)c1`, which inhibition [3] is on record?
**A.** 0%

**Q.** How did the inhibition [1] turn out when `COc1ccc(CC(=O)N(C)[C@H](CN2CC=CC2)C(C)C)cc1` was run?
**A.** 13.5%

**Q.** What about the inhibition [2] of the same compound?
**A.** 70%

**Q.** How did the inhibition [3] turn out when `CSCC[C@@H](CN1CC=CC1)N(C)C(=O)Cc1ccc([N+](=O)[O-])cc1` was run?
**A.** 0%

**Q.** What does the source list for `CC(C)[C@@H](CN1CC=CC1)N(C)C(=O)Cc1ccc(Cl)cc1`?
**A.** inhibition [1]: 42%; inhibition [2]: 60%

**Q.** `CSCC[C@@H](CN1CC=CC1)N(C)C(=O)Cc1ccc(F)cc1` was tested. Which inhibition [2] did it give?
**A.** 70%

**Q.** And the inhibition [3]?
**A.** 0%

**Q.** Which inhibition [2] does the source give for `CSCC[C@@H](CN1CC=CC1)N(C)C(=O)Cc1ccc(Cl)cc1` here?
**A.** 64%

**Q.** And the inhibition [3]?
**A.** 0%
